A selection: hits, their analogues and other compounds. The true share with any hit is near 1.5%.
Cneo AK release = causes C. neoformans cell lysis; adenylate kinase release luminescence, 4 h; normalised: neutral wells 0, clomiphene wells 100; lysis activity, % at 15 µM; 0.2% of 360,000 active; AID 651654;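 active = mean lysis activity across replicates of at least 80%, whatever share of replicates individually reach that level; inactive = mean lysis activity below 80%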
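Material – Cryptococcus neoformans yeast cells · Quantity – 5 × 10^6 yeast cells/mL · Buffer or medium – YPD medium · Compound – single dose · Timing – 4 h static compound exposure, 37 °C, read 1 h post-reagent · Signal – adenylate kinase release luminescence · Read-out basis – lysis from increased AK signal · Benchmarks – Clomiphene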
miR-122 sensor = inhibitors of miR-122 in Huh7 cells; activation (reporter increase), % at 12.5 µM; Huh7 miR-122 Renilla luciferase sensor, 48 h; neutral wells = 0, positive control = 100; AID 602342; 0.3% of 340,000 active;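 active = mean replicate activation score at least 90 and every replicate individually at or above 90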;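 note: higher luciferase means less miR-122 activity so hits act as miR-122 inhibitors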
PGC1a acetyl inh = PGC1a acetylation modulation, inhibitor mode; U2OS PGC1a acetylation, AlphaScreen anti-acetyl-lysine; with virally co-expressed GCN5 acetyltransferase; inhibition, % at 15.6 µM; 0.17% of 350,000 active;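 active = every replicate shows inhibition of at least 40%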
FN deposit inh = fibronectin deposition inhibition. AH1F fibroblasts, Alexa488-fibronectin deposition fluorescence, overnight. inhibition, % at 12.6 µM. 0.086% of 350,000 active. AID 743247;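 active = mean inhibition across replicates of 30% or more, regardless of how many single replicates reach that level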
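Assay system: AH1F fibroblasts / Quantity: 10000 cells per well / Medium: DMEM plus 2% serum, read in PBS / Reagent: labelled fibronectin 24 nM / Dosing: single dose, pinned / Times: 1 h cell attachment, overnight exposure to compound and label / Signal: fluorescence, ex 485 nm, em 525 nm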
Yeast UUG start = yeast start codon fidelity modulation; activity score, % at 18.7 µM; actives 0.13% (n = 350,000); S. cerevisiae UUG-firefly luciferase reporter, luminescence/redox ratio; AID 602363;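 active means replicate mean at a twofold rise or more, about +100% in these data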;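 further: firefly luciferase made from a UUG start codon reports start codon fidelity; reporter light over untreated wells divided by growth signal over untreated wells; some hits fall short of that in this replicate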
HIV Env fusion = HIV envelope-mediated fusion inhibition. HeLa-JRFL Env/CEM21 cell fusion, luciferase. inhibition, % at 12.3 µM. 1.1% of 360,000 active;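 active = mean replicate inhibition score of at least 50 and every replicate individually at or above 50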
Hits are given with their value; 0 = inactive; - = no result given; [ ] = dose if it differs, or a comment.

SMILES	Cneo AK release	miR-122 sensor	PGC1a acetyl inh	FN deposit inh	Yeast UUG start	HIV Env fusion
COCC(=O)Nc1ccc2c(c1)C(=O)N(C)[C@@H]1CC[C@H](CC(=O)N3CCc4ccccc4C3)O[C@@H]1CO2	0	0	0	0	-	0
COc1ccc(S(=O)(=O)N2CCCCN3[C@H](CO)[C@H](c4ccc(C5=CCCCC5)cc4)[C@H]3C2)cc1	0	0	0	-	0	-
C[C@@H]1CN([C@H](C)CO)C(=O)Cc2cc(NC(=O)Nc3ccccc3)ccc2O[C@@H]1CN(C)S(=O)(=O)c1cccs1	0	0	0	-	0	0
C[C@H](CO)N1C[C@H](C)[C@H](CN(C)S(=O)(=O)c2cccs2)Oc2ccc(NC(=O)Cc3ccccc3)cc2CC1=O	0	0	0	-	0	96[16.7 µM]
C[C@H](CO)N1C[C@H](C)[C@H](CN(C)S(=O)(=O)c2cccs2)Oc2ccc(NC(=O)CCN3CCOCC3)cc2CC1=O	0	0	0	-	0	56[16.7 µM]
COc1ccc(NC(=O)Nc2ccc3c(c2)CC(=O)N([C@@H](C)CO)C[C@H](C)[C@H](CN(C)S(=O)(=O)c2cccs2)O3)cc1	0	0	0	0	0	75[16.7 µM]
C[C@H]1CN([C@@H](C)CO)C(=O)Cc2cc(NC(=O)CCN3CCOCC3)ccc2O[C@H]1CN(C)S(=O)(=O)c1cccs1	0	0	0	-	0	0
C[C@H]1CN([C@@H](C)CO)C(=O)Cc2cc(NC(=O)Nc3ccccc3)ccc2O[C@H]1CN(C)S(=O)(=O)c1cccs1	0	0	0	-	0	70[16.7 µM]
CC12CCC(C(=O)Nc3ccc(SC(F)F)cc3)(CC1=O)C2(C)C (stereo not given)	0	0	0	-	0	-
COc1cc(C(=S)N2CCOCC2)ccc1OC(=O)Cc1ccc(F)cc1	0	0	-	-	0	-
CCOCC(=O)Nc1ccc(Br)c(C)c1	-	0	0	-	-	0
C[C@H](CO)N1C[C@H](C)[C@H](CN(C)S(=O)(=O)c2cccs2)Oc2ccc(NC(=O)C3CCCCC3)cc2CC1=O	0	0	0	-	0	61[16.7 µM]
COc1ccc(S(=O)(=O)Nc2ccc3c(c2)CC(=O)N([C@@H](C)CO)C[C@H](C)[C@H](CN(C)S(=O)(=O)c2cccs2)O3)cc1	0	0	0	0	0	80[16.7 µM]
COc1ccc(S(=O)(=O)Nc2ccc3c(c2)CC(=O)N([C@H](C)CO)C[C@@H](C)[C@H](CN(C)S(=O)(=O)c2cccs2)O3)cc1	0	0	0	0	0	0
CC(C)n1cc(/C=C/c2cc[n+](C)cc2)c2ccccc21	0	0	0	0	0	72
COc1ccc(CNC(=O)C(=O)NCC2OCCN2S(=O)(=O)c2ccc(C)cc2)cc1 (stereo not given)	0	0	0	0	0	0
Cc1cccc(C(CC(=O)N2CCCC2)c2ccccc2)c1O (stereo not given)	-	0	0	-	-	-
CCOC(=O)CN1C(=O)N[C@@H](c2ccco2)C(C(=O)OC)=C1C	0	-	-	0	0	0
CCOC(=O)C1=C(C)NC2=C(C(=O)CCC2)C1c1cc(OC)ccc1OC (stereo not given)	0	0	0	-	0	-
CCOC(=O)C1=C(C)NC2=C(C(=O)CCC2)C1c1cn(Cc2ccc(Cl)cc2Cl)nc1-c1ccccc1 (stereo not given)	0	0	0	0	0	121
COC(=O)C1=C(C)NC2=C(C(=O)CCC2)C1c1cn(Cc2ccc(Cl)cc2Cl)nc1-c1ccccc1 (stereo not given)	0	0	0	0	0	110
Cc1ccc(-c2nc(CS(=O)(=O)CC(=O)NCCCN(Cc3ccccc3)C(C)C)c(C)o2)cc1	0	0	0	0	0	0
CCn1cc(/C=C(\NC(=O)c2ccccc2)C(=O)NCCCn2ccnc2)c2ccccc21	0	165	-	0	0	0
O=C(CC1CC1)N[C@@H]1CC[C@@H](CCNS(=O)(=O)c2ccc(Cl)cc2)O[C@@H]1CO	0	-	56	0	0	0
Cc1ccc(S(=O)(=O)NCC[C@H]2CC[C@@H](NC(=O)CC3CC3)[C@@H](CO)O2)cc1	0	-	0	0	-	0
O=C(NC1CCCCC1)N[C@@H]1CC[C@@H](CCNS(=O)(=O)c2ccc(Cl)cc2)O[C@H]1CO	94	-	0	0	0	0

Compound activity (PubChem BioAssay)
